# scFv variants of Ab-91 (heavy chain) against a SARS-CoV-2 spike peptide

Source: Engelhart et al. 2022 (doi:10.1038/s41597-022-01779-4), MIT Lincoln Laboratory and A-Alpha Bio; data file from the FLAb repository.

Binding partner: SARS-CoV-2 spike HR2 peptide, sequence PDVDLGDISGINAS.

Parent: Ab-91, a human scFv built as VL, a (GGGGS)3 linker, VH. Only the CDRs of the heavy chain vary.
VL: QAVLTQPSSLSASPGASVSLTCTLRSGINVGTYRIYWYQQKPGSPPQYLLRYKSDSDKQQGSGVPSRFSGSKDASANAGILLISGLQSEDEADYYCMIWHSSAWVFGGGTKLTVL
VH: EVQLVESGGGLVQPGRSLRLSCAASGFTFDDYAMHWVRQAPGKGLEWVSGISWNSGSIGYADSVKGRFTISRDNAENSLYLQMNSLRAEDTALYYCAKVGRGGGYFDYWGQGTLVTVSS

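The library (AAYL51) carries one to three amino acid substitutions per variant, with no insertions or deletions. Affinity was read by AlphaSeq, a pooled yeast mating assay with surface-displayed partners. After mating in shaken culture at 30 °C for 16 h, diploids were selected and their barcode pairs sequenced. Scores were corrected for input abundance and mapped to Kd with protein pairs of known affinity run in the same pool. Mating was done three times.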

Substitutions are numbered in sequence along the VH above, starting at 1 (not Kabat). The read-out is the apparent dissociation constant on a log10 scale (nM): the lower, the stronger. "ND" marks a missing value. The strain was present, yet no cells mated with the target were sequenced in that replicate, which points to weak or no binding. Background: pairings of library AAYL51 with three empty control strains gave a value in 21% of cases (median 4.54, 5th percentile 3.26). Values in that range, when seen in few replicates, are hard to tell from nonspecific mating. The control count says in how many pairings with the empty strains this scFv gave a signal, with their mean in brackets. In this assay the parent's reference entry averaged 1.86; its copy inside this library read 0.88.

| changes | replicates, log10 nM | empty controls |
|---|---|---|
| M34G+H35M+V64F | ND / ND / 2.32 | 0/9 |
| M34K+N54M+G103H | ND / ND / ND | 0/9 |
| D31H+S52M+Y105C | 1.27 / 1.14 / 0.78 | 2/9 (4.32) |
| M34L+I58R+D107Y | ND / ND / ND | 0/9 |
| D62V+G100S+G103H | 4.54 / 5.04 / 5.80 | 6/9 (4.96) |
| A61K+G103C | 3.95 / 4.98 / ND | 3/9 (4.10) |
| F29T+S52T+K65H | 4.54 / ND / 5.41 | 6/9 (4.76) |
| G50M+G56K+Y105H | ND / ND / ND | 0/9 |
| F29T+G102Y+Y108F | 1.36 / 1.41 / 0.90 | 5/9 (5.28) |
| T28H+G100K | ND / ND / ND | 1/9 (4.76) |
| A61H+S63W+K65E | 2.81 / 3.07 / 2.45 | 0/9 |
| W53A+G59N+D62M | ND / ND / ND | 1/9 (4.25) |
| F27P+N54L+Y105D | ND / ND / ND | 0/9 |
| I51K+Y105E | ND / ND / ND | 0/9 |
| F27V+M34K+G104I | ND / 4.19 / ND | 2/9 (4.75) |
| S57M+G59Y+G100H | 5.87 / ND / ND | 3/9 (5.01) |
| S63K+V99E+Y105E | 1.39 / 1.41 / 1.03 | 1/9 (3.76) |
| G26Y+H35P+V64N | 5.65 / 5.73 / ND | 5/9 (5.65) |
| F27K+G59A | ND / ND / 3.37 | 1/9 (4.19) |
| V99R+G102A | 3.75 / 3.46 / 3.44 | 8/9 (5.55) |
| S55A+I58K+Y60K | ND / ND / ND | 2/9 (4.79) |
| Y32E+V64H+D107R | ND / 4.97 / ND | 4/9 (4.41) |
| H35Q+G102M+D107L | ND / ND / ND | 0/9 |
| D30W+H35M+R101G | ND / ND / ND | 5/9 (4.31) |
| Y32H+S63D | 3.08 / 3.23 / 2.97 | 6/9 (4.55) |
| D31K+Y32V | ND / ND / ND | 0/9 |
| M34V+V99A | ND / ND / ND | 0/9 |
| Y32E+V64M+R101P | 4.61 / 5.39 / 6.13 | 7/9 (5.25) |
| S55R+Y105K+Y108E | 4.30 / ND / 4.66 | 2/9 (4.26) |
| F27N+F106S | 4.04 / 4.52 / ND | 3/9 (3.66) |
| G56S+Y60P+G102K | 4.52 / ND / ND | 2/9 (4.19) |
| M34I+Y108F | 4.97 / 4.32 / 4.59 | 2/9 (4.89) |
| M34N+S55H+S63H | 4.75 / 4.14 / ND | 5/9 (4.74) |
| T28Q+M34T+Y108D | 6.11 / 5.28 / ND | 2/9 (4.90) |
| G59Y+Y108V | 4.87 / 4.15 / ND | 4/9 (5.05) |
| G50D+A61P+V64G | 4.77 / ND / 4.10 | 4/9 (4.80) |
| A33K+H35L+G103Y | ND / ND / ND | 1/9 (3.14) |
| D30E+N54A+Y105E | 3.50 / ND / ND | 1/9 (4.26) |
| H35P+S52D+D107G | ND / ND / ND | 0/9 |

The first 3 variants above that were never detected:

{"changes": "M34K+N54M+G103H", "replicates, log10 nM": "ND / ND / ND", "empty controls": "0/9"}
{"changes": "M34L+I58R+D107Y", "replicates, log10 nM": "ND / ND / ND", "empty controls": "0/9"}
{"changes": "G50M+G56K+Y105H", "replicates, log10 nM": "ND / ND / ND", "empty controls": "0/9"}